This note sets out measurements from patent US20100285988A1 (published 2010).

For assay [1], the target named is T1, γ-secretase (human; HeLa cell membrane / solubilized HeLa membrane; endogenous in HEK293 cells) (human, UniProt P49768 1-467; Q92542 34-709; Q9NZ42 1-101; Q96BI3 1-265).
Assay [2] concerns the target T1, γ-secretase (human; HeLa cell membrane …). This is another data set of the same source.

Read-outs that look alike come from different tables or passages of the source.

Turning to LVFFAED [Aβ17-23 (LVFFAED) peptide], 1.58 µM corresponded to half-maximal inhibition in assay [1] (IC50).

Take LVFF [Aβ17-20 (LVFF) peptide]: the IC50 – broadly, the concentration that inhibits the measured activity by half – in assay [2] amounted to 8.7 µM.

B1: Aβ17-23BPA^19 (peptide)
peptide: LVFFAED
modifications: p-benzoyl-L-phenylalanine (BPA) in place of Phe at position 19 of Aβ (3rd residue of LVFFAED)
Consider B1, for which inhibition in assay [2] was half-maximal at 5 µM (IC50). LVFFA [Aβ17-21 (LVFFA) peptide] had an IC50 in assay [2] of 0.8 µM.
